From patent publication US8846363B2, “Compositions of and methods of using sulfatases from Flavobacterium heparinum” (priority 2007, dated 2014)

Amino acid sequences for entries named in this document (tags omitted). A change or cut given only in a name is not applied to a line headed by its entry.
UniProt C6Y1N4, entry or part of it: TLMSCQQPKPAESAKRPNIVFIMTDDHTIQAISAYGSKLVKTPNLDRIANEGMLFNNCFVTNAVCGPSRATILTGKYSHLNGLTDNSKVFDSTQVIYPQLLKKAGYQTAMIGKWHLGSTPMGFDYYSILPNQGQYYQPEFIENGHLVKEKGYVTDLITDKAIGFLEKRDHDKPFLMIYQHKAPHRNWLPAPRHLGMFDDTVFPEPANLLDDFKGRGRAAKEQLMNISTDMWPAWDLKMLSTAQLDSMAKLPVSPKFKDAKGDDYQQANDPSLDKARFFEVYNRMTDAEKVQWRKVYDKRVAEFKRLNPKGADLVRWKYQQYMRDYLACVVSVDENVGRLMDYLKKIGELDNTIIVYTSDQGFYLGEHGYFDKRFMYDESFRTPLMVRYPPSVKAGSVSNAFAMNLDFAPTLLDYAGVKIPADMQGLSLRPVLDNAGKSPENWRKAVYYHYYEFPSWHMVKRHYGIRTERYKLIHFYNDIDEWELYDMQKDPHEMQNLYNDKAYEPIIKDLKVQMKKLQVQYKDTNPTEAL

Molecular target: T1, Flavobacterium heparinum 6-O-sulfatase (ORF B), recombinant, NH2-terminal truncation lacking signal sequence, SEQ ID NO: 2 (Pedobacter heparinus, UniProt C6Y1N4)
T1 construct: E. coli BL21(DE3), N-terminal 6xHis removed by thrombin
Experiment: Inhibition of 6-O-sulfatase activity (sulfate, phosphate, chelators)
Type: biochemical
Conditions: normalized to 0 sulfate or phosphate added; read-out: concentration for 50% inhibition of 6-O-sulfatase activity

Q: How did the IC50 turn out when phosphate was run?
A: Its IC50 is ~2000 µM.
